Patent US20210369684A1 (MOUNT TAM THERAPEUTICS, INC., priority 2018, published 2021)
pIC50: −log10 of the molar value.

Key:
TORC2 = molecular target: T1, TORC2 (Homo sapiens, UniProt P42345+P62942); assay: IC50 in PC3 cells, TORC2; type: cell-based
T1 construct: endogenous in cells; host or cells: PC3 cells

TORC1 = molecular target: T2, TORC1 (Homo sapiens, UniProt P42345+P62942); assay: IC50 in PC3 cells, TORC1; type: cell-based
T2 construct: endogenous in cells; host or cells: PC3 cells

pIC50 (TORC2): 7.96 | pIC50 (TORC1): 10.35 | TORC1/TORC2 Selectivity (TORC1; from IC50 values): 244x
Substance: C37-[(1S,2R,4S,5R)-5-hyhroxybicyclo[2.2.1]heptane] rapamycin [reference compound]
